Source: patent US20040091907A1 (SUGEN, published 2004)

Sequences of proteins named here, by UniProt entry; tags and fusion partners are left off. Residues count along the entry.
UniProt O96013, 291-591: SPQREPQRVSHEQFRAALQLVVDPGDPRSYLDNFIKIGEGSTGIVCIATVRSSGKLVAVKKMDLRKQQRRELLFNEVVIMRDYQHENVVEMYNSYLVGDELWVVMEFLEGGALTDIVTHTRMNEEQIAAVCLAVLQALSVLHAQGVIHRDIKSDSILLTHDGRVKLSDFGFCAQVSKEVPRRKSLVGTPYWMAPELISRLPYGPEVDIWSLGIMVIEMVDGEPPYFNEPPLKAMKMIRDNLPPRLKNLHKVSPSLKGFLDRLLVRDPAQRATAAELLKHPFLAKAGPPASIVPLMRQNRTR

Experiments:
[1] = biological target: T1, full-length myc-tagged PAK4 protein (human, UniProt O96013); experiment: GST pull-down on glutathione beads from 293T lysate, myc immunoblot
T1 construct: Over-expressed in 293T cells, used as cell lysate; also called exogenous PAK4
Protocol: (§1) An equivalent amount of beads and excess lysates (500 ug) were used. Eluates of beads and total lysates were analysed by SDS-PAGE and immunoblotted with myc or GEF-H1 antiserum; (c) represents a PAK4 gene schematic outlining the regions of PAK4 used to identify the GEF-H1 interaction domain (GID). d, alignment of the GID defined by the minimal binding region of PAK4 with PAK5 and PAK6.
(§2) These fusion proteins were bound to glutathione beads and utilized in binding assays with 293T lysates expressing exogenous PAK4.
(§3) The GST immobilized GEF-H1S polypeptide was used to conduct immunoprecipitation from the 293T cell extracts. The resulting protein complexes on the beads were identified by separating on SDS-PAGE followed by Western blotting to identify proteins that are present. The Western blot technique (Renart et al., Methods Enzymol., 104:455-60, 1984) is universally used to identify proteins using specific immunoreagents like antibodies. […] PAK4 was not present after immunoprecipitation with immobilized fusion partner GST. This interaction was limited by the presence or absence of GEF-H1S.

[2] = biological target: T2, myc-tagged PAK4 kinase domain (amino acids 291-591) (human, UniProt O96013, in part); experiment: as above
T2 construct: Over-expressed in 293T cells, used as cell lysate
Protocol: as §1, §2, §3

binding result [1]: no binding
binding result [2]: no binding
B1: GST (Glutathione-S-transferase) (other, UniProt P08515 1-218, looked up)
chain: MSPILGYWKIKGLVQPTRLLLEYLEEKYEEHLYERDEGDKWRNKKFELGLEFPNLPYYIDGDVKLTQSMAIIRYIADKHNMLGGCPKERAEISMLEGAVLDIRYGVSRIAYSKDFETLKVDFLSKLPEMLKMFEDRLCHKTYLNGDHVTHPDFMLYDALDVVLYMDPMCLDAFPKLVCFKKRIEAIPQIDKYLKSSKYIAWPLQGWQATFGGGDHPPK
notes: Control; also called GST control protein; fusion partner GST
